Measured affinities in a library of Ab-14 heavy chain variants

The measurements come from Engelhart et al. 2022 (doi:10.1038/s41597-022-01779-4) through the FLAb antibody collection.

Target: peptide PDVDLGDISGINAS, taken from heptad repeat 2 (HR2) of SARS-CoV-2 spike.

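AAYL49 was designed without a model: most single CDR substitutions and a random sample of double and triple ones. In AlphaSeq, yeast of one mating type display the scFv and yeast of the other type display the target. Binding brings cells together so that they mate, and sequencing counts the barcode pairs among the diploids. The ratio of observed to expected reads was calibrated, replicate by replicate, on BCL2-family standards whose Kd was known from biolayer interferometry. The assay was run in three technical replicates.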

The variants keep the light chain, the linker and the frameworks of Ab-14 (scFv order VH, a (GGGGS)3 linker, VL).
VH: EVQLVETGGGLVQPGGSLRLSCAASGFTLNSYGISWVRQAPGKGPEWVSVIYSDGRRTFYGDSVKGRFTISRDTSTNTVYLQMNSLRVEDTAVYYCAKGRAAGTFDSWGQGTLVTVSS
VL: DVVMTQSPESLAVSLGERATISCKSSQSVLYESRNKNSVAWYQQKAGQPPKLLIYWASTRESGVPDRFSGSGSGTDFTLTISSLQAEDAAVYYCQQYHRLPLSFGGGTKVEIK

Variants are written as CDR1, CDR2 and CDR3 of the heavy chain (limits as in the source). Parent: GFTLNSYGIS, VIYSDGRRTFYGDSVK, GRAAGTFDS.
Scale: log10 of Kd in nM, estimated from mating counts; low values are strong binders.
A mean of the replicates is given; it leaves out those without a signal.
Where no diploid with the target was found in that replicate, the entry reads "ND": below detection, most likely a poor binder, though not proof of it.
For reference, the parent read 0.65 as the reference entry and 4.11 (one replicate of three) as a member of this library.

| CDR-H1 | CDR-H2 | CDR-H3 | log10 Kd (nM) by replicate | mean, log10 nM | signal with controls |
|---|---|---|---|---|---|
| GFTLYSYGIS | VIRSDGLRTFYGDSVK | GRAAGTFDS | 4.25 / 4.67 / 5.17 | 4.70 | 2 of 9 (4.38) |
| GKTLNSYGIS | VIYSDGRTTFYGVSVK | GRAAGTFDS | ND / ND / ND | ND | 0 of 9 |
| GFTLNSYGTS | VIYSDERRTFYGDSVK | GRTAGTFDS | ND / ND / 4.67 | 4.67 | 2 of 9 (4.60) |
| GNTLNSYGIS | VIYIDGRLTFYGDSVK | GRAAGTFDS | ND / ND / ND | ND | 1 of 9 (3.58) |
| GFTLNSYGIS | VIYSDGRRRFYGDSVK | MRAAGTFPS | 4.85 / ND / ND | 4.85 | 1 of 9 (2.82) |
| GFTLNSYGIS | VIYSDGRRTFYGDSVK | HRPAGTFDS | ND / ND / ND | ND | 2 of 9 (3.78) |
| GFTLNSYGRS | VIYSDGRRWFYGDSVK | GRAAGTFDQ | ND / ND / ND | ND | 1 of 9 (3.38) |
| GFTLNDYGIS | VIYSDGRRTFYGDSVK | GRAAGEFDI | 0.65 / 0.79 / 0.80 | 0.75 | 1 of 9 (2.84) |
| GFTLNSGGIS | VIYSDGRRTFYGDSVK | GRAAGTHDS | ND / 5.00 / ND | 5.00 | 1 of 9 (2.99) |
| GFTLNSYGIS | VIYSPGRRTWYGASVK | GRAAGTFDS | ND / ND / 4.19 | 4.19 | 0 of 9 |
| GFTLNSYGIS | AIYSDGRMTFYGDSVK | GRAAGTFDS | ND / ND / ND | ND | 2 of 9 (3.46) |
| GFTLNSYGIS | VIYSDGRRMFYGDSVK | GRAAGTFKV | ND / ND / ND | ND | 2 of 9 (4.93) |
| GFTLNSYPIS | VIYSDGRRTFYGDSVF | GRAAQTFDS | ND / 5.18 / ND | 5.18 | 3 of 9 (4.05) |
| GFTDNSYGIS | VIYSDGRRTFYGDSVK | GRAVGTFDA | ND / ND / ND | ND | 1 of 9 (4.26) |
| GFTLNYYGIS | VIYSDGRRKFYGDSVK | GRAAGTIDS | 2.19 / 2.06 / 1.95 | 2.06 | 1 of 9 (2.97) |
| GHTLNSYGHS | VIYSDGRRTFYADSVK | GRAAGTFDS | ND / ND / ND | ND | 0 of 9 |
| GFTLNSYGIS | VIYSDGRRTPQGDSVK | GRAAGTFAS | ND / ND / ND | ND | 2 of 9 (4.47) |
| GFTLNSYGIS | VIYSDDEYTFYGDSVK | GRAAGTFDS | ND / ND / ND | ND | 0 of 9 |
| GFFLNSYGIS | VIYSDGRRTFYGDSVK | GRAAGAFDM | ND / ND / ND | ND | 3 of 9 (3.66) |
| GFTLNSYLIS | VIYSPGRRTNYGDSVK | GRAAGTFDS | ND / ND / ND | ND | 3 of 9 (4.07) |
| GFTLNTYGIS | VIYSDGRRTFYGDSVK | GRAAGVWDS | 0.34 / 0.62 / 0.50 | 0.49 | 0 of 9 |
| LFTLNSYTIS | VIYSDGRRTIYGDSVK | GRAAGTFDS | ND / ND / ND | ND | 2 of 9 (3.11) |
| GFTLNSYLIS | VIYSDGRKTFGGDSVK | GRAAGTFDS | ND / ND / ND | ND | 0 of 9 |
| GPTLNSYGIS | VIYSDGRRTFYGDSVK | GRAAGAFDS | ND / ND / ND | ND | 0 of 9 |
| GETLNSYGIS | VFYSDGRRTGYGDSVK | GRAAGTFDS | 3.80 / 2.92 / 5.58 | 4.10 | 3 of 9 (3.90) |
| GFTLNSYGIS | VIYYDGCRTFYGDSVK | GDAAGTFDS | 1.62 / 1.80 / 1.89 | 1.77 | 1 of 9 (4.66) |
| GFLLNSYGIS | VIYSDGGRTFYGDMVK | GRAAGTFDS | ND / ND / ND | ND | 2 of 9 (3.72) |
| GFTLNSYGIS | VIYSDSRRTFYGDSVK | VRALGTFDS | ND / 3.90 / ND | 3.90 | 2 of 9 (3.75) |
| GFTLNSYGIT | VIYLDGRRTFRGDSVK | GRAAGTFDS | ND / ND / ND | ND | 2 of 9 (4.25) |
| TFTLNSYGIS | VIYSDGRRTFYGDSVK | GYAKGTFDS | ND / ND / ND | ND | 0 of 9 |
| GFTMNSYGIS | VIYSDGVRTFYGDSVK | GDAAGTFDS | 1.89 / 2.29 / 1.55 | 1.91 | 0 of 9 |
| GVTLNSYGIS | VIYSDGRRTFYGDSVE | FRAAGTFDS | 2.87 / 3.23 / 2.78 | 2.96 | 4 of 9 (4.26) |
| GFTLFSYGIS | VIYSDGRRTFYGDLVK | RRAAGTFDS | 2.50 / ND / 2.09 | 2.29 | 0 of 9 |
| GFTLNSYGIS | VIVSDGRGTFYGDSVK | GRAEGTFDS | ND / ND / ND | ND | 0 of 9 |
| GFTLNSYGIS | VSYSDGRRTKYGDSVK | GRAFGTFDS | ND / ND / ND | ND | 1 of 9 (4.18) |
| GFTCNSYGIS | GIYSDGRRTFYGDSVK | GRAAGYFDS | 6.14 / 4.27 / ND | 5.21 | 3 of 9 (4.07) |
| GFTLNSYGIS | VIYSDGRRTFYGDHVK | GRAAGTNDS | ND / ND / ND | ND | 0 of 9 |
| GFTLNSYGIS | VIYSDHRRTFYDDSVK | DRAAGTFDS | ND / ND / 4.15 | 4.15 | 2 of 9 (3.86) |
| GFTLNSDGIS | VIYSDGRRTFRGDSVK | GRAAGTFDS | ND / ND / ND | ND | 0 of 9 |
| GFTLNSYGIS | VIYSDFRRTFYGDLVK | GRAAGTFDS | ND / 4.09 / 4.10 | 4.09 | 3 of 9 (4.36) |
| GFTLNSYGIS | VIYSDGRRTEYGDSVK | VRAAGKFDS | 5.28 / ND / ND | 5.28 | 1 of 9 (3.22) |
| GFTLNSYGIS | VIDSDGRRTFYGDSMK | FRAAGTFDS | ND / ND / ND | ND | 0 of 9 |
| SFTLNSYGIS | EFYSDGRRTFYGDSVK | GRAAGTFDS | ND / ND / ND | ND | 0 of 9 |
| GFTLNSYGIS | VIYSDGRRTMYGDSAK | GRTAGTFDS | 2.00 / 1.94 / 1.91 | 1.95 | 1 of 9 (3.88) |
| GFTLISYGIS | VITSDGRRTKYGDSVK | GRAAGTFDS | ND / 4.14 / 5.14 | 4.64 | 2 of 9 (5.61) |
| GFTLNSYGIS | VIVSDGRRTFYGDSVK | ERAAGTFDM | ND / 5.09 / 3.59 | 4.34 | 0 of 9 |
| GFFLNSYGIL | VIYSDGRRTFYGDSVK | GRAAGTFPS | ND / ND / ND | ND | 1 of 9 (2.89) |
| GFTCRSYGIY | VIYSDGRRTFYGDSVK | GRAAGTFDS | ND / ND / ND | ND | 0 of 9 |
| GFTLNSYGIS | VIYSDGIRTFRGDSTK | GRAAGTFDS | ND / 2.43 / ND | 2.43 | 1 of 9 (2.91) |

The closing 6 entries, repeated:

| CDR-H1 | CDR-H2 | CDR-H3 | log10 Kd (nM) by replicate | mean, log10 nM | signal with controls |
|---|---|---|---|---|---|
| GFTLNSYGIS | VIYSDGRRTMYGDSAK | GRTAGTFDS | 2.00 / 1.94 / 1.91 | 1.95 | 1 of 9 (3.88) |
| GFTLISYGIS | VITSDGRRTKYGDSVK | GRAAGTFDS | ND / 4.14 / 5.14 | 4.64 | 2 of 9 (5.61) |
| GFTLNSYGIS | VIVSDGRRTFYGDSVK | ERAAGTFDM | ND / 5.09 / 3.59 | 4.34 | 0 of 9 |
| GFFLNSYGIL | VIYSDGRRTFYGDSVK | GRAAGTFPS | ND / ND / ND | ND | 1 of 9 (2.89) |
| GFTCRSYGIY | VIYSDGRRTFYGDSVK | GRAAGTFDS | ND / ND / ND | ND | 0 of 9 |
| GFTLNSYGIS | VIYSDGIRTFRGDSTK | GRAAGTFDS | ND / 2.43 / ND | 2.43 | 1 of 9 (2.91) |

Three control strains display no target. For library AAYL49, 15% of the pairings with them gave a signal, with a median of 4.06 and one signal in twenty below 2.83, so weak values seen in few replicates may be background. Also given: how often the same scFv was detected with the empty control strains, with their mean in brackets.